ChEMBL document CHEMBL3352780, “Discovery of Sulfonamidebenzamides as Selective Apoptotic CHOP Pathway Activators of the Unfolded Protein Response” (ACS Med Chem Lett, 2014)

Assay: Ratio of XBP1 mRNA expression in human UM-SCC-23 cells to CHOP mRNA expression in human UM-SCC-23 cells at 10 uM
Assay type: functional

Structure (SMILES): O=C(Nc1ccc(S(=O)(=O)N2CCC(Cl)CC2)cc1)c1ccc([N+](=O)[O-])o1
- Ratio: 5
